Reference: patent publication US7825146B2, “Sulfonamide derivative having isoxazole ring” (Shionogi & Co., Ltd., priority 2003, dated 2010)

By UniProt entry, the sequences of proteins in these tests, tags left out. Residues count along the entry.
UniProt P22894, 99-262 limits assumed: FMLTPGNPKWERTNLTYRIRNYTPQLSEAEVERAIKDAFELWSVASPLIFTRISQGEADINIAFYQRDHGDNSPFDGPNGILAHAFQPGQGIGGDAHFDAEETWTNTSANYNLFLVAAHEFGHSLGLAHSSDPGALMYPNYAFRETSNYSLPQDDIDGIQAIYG
UniProt P39900, 100-263 limits assumed: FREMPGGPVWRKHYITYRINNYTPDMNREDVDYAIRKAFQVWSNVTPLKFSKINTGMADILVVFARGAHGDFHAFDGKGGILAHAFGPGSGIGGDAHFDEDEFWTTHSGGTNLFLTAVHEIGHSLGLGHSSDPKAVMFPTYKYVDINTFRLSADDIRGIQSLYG

What was measured:
[1] = molecular target: MMP-8 (Homo sapiens, UniProt P22894); test: Assay for inhibitory activities on MMPs (fluorogenic MOCAc peptide substrate): MMP-8; conditions: read-out: MMP-8 (μM) inhibitory activity (IC50); catalytic domain 99Phe-262Gly
Excerpt: In regard to MMP-8, catalytic domain (^99Phe˜^262Gly) was amplified with PCR using commercial available Human Bone Marrow cDNA. This was cloned in Escherichia. coli expression vector pTrc99AHE inserted with His-tag sequence and enterokinase digestion-site, induced and expressed by IPTG (Isdpropyl-β-D-thiogalactopyranoside) and expressed in a insoluble fraction (Thau F. Ho, M. Walid Qoronfleh, Robert C. Wahl, Trica A. Pulvino, Karen J. Vavra, Joe Falvo, Tracey M. Banks, Patricia G. Brake and Richard B. Ciccarelli: Gene expression, purification and characterization of recombinant human neutrophil collagenase. Gene 146, (1994) 297-301, Prepared by the a improved method of this material). […]
(§1) The enzymatic activity on MMPs was analyzed by the method described in “C. […] The measurement of the inhibitory activities (IC50) was carried out by the following four methods; • (A) Reaction with substrate, enzyme (MMPs) and inhibitor • (B) Reaction with substrate and inhibitor, without enzyme • (C) Reaction with substrate and enzyme (MMPs), without inhibitor • (D) Reaction with substrate only IC50 values were calculated by using the following formula and each fluorescence values of above four methods (A to D). […]
(§2) The value of inhibitory activity against MMP-2, MMP-8, MMP-9, MMP-12, and MMP-13 measured by above mentioned methods are shown in Table 36, 37, 38, 39, and 40 respectively.

[2] = molecular target: MMP-12 (Homo sapiens, UniProt P39900); test: Assay for inhibitory activities on MMPs (fluorogenic MOCAc peptide substrate): MMP-12; conditions: read-out: MMP-12 (μM) inhibitory activity (IC50); catalytic domain 100Phe-263Gly
Protocol: In regard to MMP-12, catalytic domain(^100Phe˜^263Gly) was amplified with RT-PCR from Human Placenta Total RNA. This was cloned in Escherichia. coli expression vector pTrc99AHE inserted with His-tag sequence and enterokinase digestion-site, induced and expressed by IPTG (Isopropyl-β-D-thiogalactopyranoside) and expressed in a insoluble fraction. Isolation of MMP-12 from an insoluble fraction was carried out by dissolving in modifier (6M urea) by a usual method and purification with metal chelate chromatography (Ni Chelateing Sepharose). And then removing modifier (6M urea) with dialysis and refolding of the enzyme spontaneously gave activated MMP-12.
as §1, §2

[3] = molecular target: MMP-13 (Homo sapiens, UniProt P45452); test: Assay for inhibitory activities on MMPs (fluorogenic MOCAc peptide substrate): MMP-13; conditions: read-out: MMP-13 (μM) inhibitory activity (IC50), Table 40
Protocol: In regard to MMP-13, mRNA was prepared from carcinoma cell SW1353 derived from human cartilage stimulate by IL-1, TNF and catalytic domain (^104Tyr˜^267Gly) was amplified with RT-PCR. This was cloned in Escherichia. coli expression vector pTrc99AHE inserted with His-tag sequence and enterokinase digestion-site, induced and expressed by IPTG (Isopropyl-β-D-thiogalactopyranoside) and expressed in a insoluble fraction. Isolation of MMP-13 from an insoluble fraction was carried out by dissolving in modifier (6M urea) by a usual method and purification with metal chelate chromatography (Ni Chelateing Sepharose). […]
as §1, §2

Row | IC50 [1] [µM] | IC50 [2] [µM] | IC50 [3] [µM] | Compound
1 | 0.00413 |  |  | Cc1ccc(-c2cc(-c3ccc(S(=O)(=O)N[C@H](C(=O)O)C(C)C)s3)on2)s1
2 |  | 0.000259 | 0.000796 | CC(C)[C@H](NS(=O)(=O)c1ccc(-c2cc(-c3ccc(OC(F)(F)F)cc3)no2)cc1)C(=O)O
3 |  | 0.000529 | 0.000828 | COc1ccc(-c2cc(-c3ccc(S(=O)(=O)N[C@H](Cc4c[nH]c5ccccc45)C(=O)O)cc3)on2)cc1
